{"source": "PubChem BioAssay AID651819", "about": "(National Center for Advancing Translational Sciences (NCATS), 2012)", "note": "Only a part is listed here, and it is no random draw. The source made the active and inactive calls. Rule as the data show it: active = activity change below about -30%; inactive = the rest. % is scaled to controls: 0 for no effect and ±100 for the full control effect."}
{"system": "cytosolic chaperonin (CCT/TRiC complex)", "assay": "High-Throughput Screening for Modulators of Cytosolic Chaperonin Activity", "conditions": "purified chaperonin ATPase assay, HTRF ADP detection, 30 min; hits give low values", "source_text": "The eukaryotic chaperonin named TRiC (for TCP-1 ring complex), also called CCT (for chaperonin containing TCP1), is an essential and conserved chaperone required for the folding and activation of 10-15% of the proteins encoded by the human genome. […] Despite its central role in cellular folding, little is known about TRiC mechanism and mode of substrate binding. Currently, no specific TRiC inhibitors are available. Given the early promise of other chaperone-directed inhibitors as cancer therapeutics (e.g. HSP90 inhibitors), inhibitors of TRiC activity may also selectively target transformed cells and have potential use as therapeutics for cancer.\nTo this end, a miniaturized assay was developed to screen against the Molecular Libraries Small Molecule Repository (MLSMR).\nNIH Chemical Genomics Center [NCGC] […]\n1.5 uL/well TRiC enzyme suspended in buffer (30 mM TRIS pH7.4, 100 mM KCl, 5 mM MgCl2, 1 mM DTT) was added with BioRAPTR FRD dispenser at 40 nM or 20 nM (based on the enzymatic activity of used batches) final concentration to a white solid bottom medium binding 1536-well plate (Greiner Bio-One, Monroe, NC), and quickly spanned down. […] Then, the plates were read using Envision reader with excitation at 330nm and emission at 615nm (Eu(3)-Cryptate donor signal) and 665nm (d2 acceptor signal). The ratio of […] was calculated for each well."}
{"smiles": "CCC(=O)N(c1ccccc1)C1(COC)CCN(CCc2cccs2)CC1", "activity change": "inactive: -0.331%"}
{"smiles": "CCC(=O)N(c1ccccc1)C1(COC)CCN(CCn2nnn(CC)c2=O)CC1", "activity change": "inactive: 0.145%"}
